pIC50: −log10 of the molar value.
Experiments:
[1] = molecular target: T1, Butyrylcholinesterase (Equus caballus, UniProt Q9N1N9)
[2] = molecular target: T1, Butyrylcholinesterase; remark: listed apart in the source

By UniProt entry, the sequences of proteins in these tests, tags left out.
UniProt Q9N1N9, whole entry: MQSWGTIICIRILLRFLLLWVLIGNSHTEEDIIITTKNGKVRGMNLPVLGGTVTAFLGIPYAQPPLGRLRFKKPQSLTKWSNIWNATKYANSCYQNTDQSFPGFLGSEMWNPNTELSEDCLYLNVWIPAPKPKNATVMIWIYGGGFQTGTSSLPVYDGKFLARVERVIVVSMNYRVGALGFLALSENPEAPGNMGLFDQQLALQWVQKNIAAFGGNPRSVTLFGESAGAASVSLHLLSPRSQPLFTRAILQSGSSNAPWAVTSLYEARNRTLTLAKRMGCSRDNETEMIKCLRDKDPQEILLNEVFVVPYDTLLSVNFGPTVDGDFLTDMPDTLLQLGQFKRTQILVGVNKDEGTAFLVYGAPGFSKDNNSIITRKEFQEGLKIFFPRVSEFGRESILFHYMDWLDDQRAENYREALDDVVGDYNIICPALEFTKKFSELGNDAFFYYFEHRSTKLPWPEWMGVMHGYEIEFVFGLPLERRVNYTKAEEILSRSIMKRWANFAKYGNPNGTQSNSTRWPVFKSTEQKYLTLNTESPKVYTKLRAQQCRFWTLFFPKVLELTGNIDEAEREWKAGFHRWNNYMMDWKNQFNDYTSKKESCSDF

| Structure (SMILES) | pIC50 [1] | pIC50 [2] |
| --- | --- | --- |
| CCCN(CCC)CCCOc1c(OC)ccc2cc3[n+](cc12)CCc1cc2c(cc1-3)OCO2 | 5.54 | 5.83 |
| COc1ccc2cc3[n+](cc2c1OC)CCc1cc2c(cc1-3)OCO2 [BERBERINE CHLORIDE] | 4.74 | – |
| COc1ccc2cc3[n+](cc2c1OCCN(C)C)CCc1cc2c(cc1-3)OCO2 | 5.78 | 6.03 |

Reference: ChEMBL document CHEMBL1268919, “Berberine derivatives, with substituted amino groups linked at the 9-position, as inhibitors of acetylcholinesterase/butyrylcholinesterase” (Bioorg Med Chem Lett, 2010)
